# AlphaSeq binding of Ab-95 light chain variants to a spike HR2 peptide

Target peptide (SARS-CoV-2 spike, HR2 region): PDVDLGDISGINAS

Each scFv is VH, a 15-residue (Gly4Ser)3 linker, VL, as in the parent Ab-95, and differs from it in the CDRs of the light chain only.
VH: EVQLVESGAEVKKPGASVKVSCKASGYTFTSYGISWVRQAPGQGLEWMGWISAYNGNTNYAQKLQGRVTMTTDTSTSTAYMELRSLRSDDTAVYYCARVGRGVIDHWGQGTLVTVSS
VL: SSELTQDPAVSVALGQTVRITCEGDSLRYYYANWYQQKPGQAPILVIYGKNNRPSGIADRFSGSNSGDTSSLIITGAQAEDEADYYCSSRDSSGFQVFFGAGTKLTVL

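Phage display of a naive human antibody library on the peptide gave the parent. AAYL52 was designed without a model: most single CDR substitutions and a random sample of double and triple ones. In AlphaSeq, yeast of one mating type display the scFv and yeast of the other type display the target. After mating in shaken culture at 30 °C for 16 h, diploids were selected and their barcode pairs sequenced. Read counts were normalised to the haploid input and turned into Kd by a linear fit to BCL2-family pairs of known affinity, for each replicate. Each pool was mated in three replicate cultures.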

The parent's light chain CDRs are EGDSLRYYYAN, GKNNRPS, SSRDSSGFQVF; each variant's own CDRs replace them letter for letter. Affinities are written as log10 Kd with Kd in nM; a lower number is a better binder. Replicates are averaged; those with no signal do not enter the mean. "nd" marks a missing value. The strain was present, yet no cells mated with the target were sequenced in any replicate, which points to weak or no binding.

| # | CDR-L1 | CDR-L2 | CDR-L3 | mean log10 Kd (nM) | detected |
|---|---|---|---|---|---|
| 1 | EGDSLRYYYAN | QQNNRPS | SSRDSSTFQVF | nd | 0 of 3 |
| 2 | EGDSLRAYYAN | GKNNVPS | SSRDSSGFQVF | 3.19 | 3 of 3 |
| 3 | EGDSLRYYYMN | GKNMRPS | NSRDSSGFQVF | nd | 0 of 3 |
| 4 | EGDSLRPYYAN | GKPNRPT | SSRDSSGFQVF | 3.77 | 1 of 3 |
| 5 | EGDSLRYRYLN | GKNNRPS | SSRDSSGFQQF | 2.90 | 3 of 3 |
| 6 | EGDSLRYRYAN | GKPNYPS | SSRDSSGFQVF | 3.29 | 3 of 3 |
| 7 | EGDSLRYYCAC | GKNNRPS | SSRDSSGFQGF | 4.98 | 2 of 3 |
| 8 | EIDSLRWYKAN | GKNNRPS | SSRDSSGFQVF | 3.54 | 3 of 3 |
| 9 | EGDSLRYYYAN | GKNLRPS | SSRDDQGFQVF | 2.77 | 3 of 3 |
| 10 | EGDSLRYYYAN | GKNARPS | SSRDSEGFQMF | nd | 0 of 3 |
| 11 | EGDSLRYYYAN | GKNNRPK | MSRDSSGFQVE | 2.46 | 3 of 3 |
| 12 | EGDGLRYYYAN | GKNNRPS | SSRDSSPFSVF | 2.41 | 3 of 3 |
| 13 | EGDSLRMYYAC | GKNNRPS | SSRDGSGFQVF | 4.05 | 3 of 3 |
| 14 | EGDSIRYYYAN | KKWNRPS | SSRDSSGFQVF | 4.12 | 1 of 3 |
| 15 | EGDSYRYLYAN | GKWNRPS | SSRDSSGFQVF | nd | 0 of 3 |
| 16 | EGYSLRYYYAN | GKNNRPS | SSRDSSGFQTF | 5.05 | 1 of 3 |
| 17 | EGDELRYYYAN | GKNNRPS | SINDSSGFQVF | 3.95 | 1 of 3 |
| 18 | EGDSLQYYYAN | GKNNRPS | SSRDSSSCQVF | 4.47 | 1 of 3 |
| 19 | EGDSMRYYYAN | GKGNRPS | SSRYSSGFQVF | 3.70 | 3 of 3 |
| 20 | EGDSLRYTYAN | PKNNRPS | SLRDSSGFQVF | 4.18 | 3 of 3 |
| 21 | EGDSLNYWYAN | GKNNRPS | SSRDISGFQVF | 1.97 | 3 of 3 |
| 22 | EGDSHRYYYAN | GKNNGPS | SSRDSSGFQRF | 3.61 | 3 of 3 |
| 23 | EGDSLRYYYAN | GTNNRPS | TSRDSSDFQVF | nd | 0 of 3 |
| 24 | EGDSLRYYYAN | GKNNRPS | SVRDSSGPQVF | 2.57 | 3 of 3 |
| 25 | EGDSCRYYYAN | GKNNRPS | SSRDSSGFHVP | 1.94 | 3 of 3 |
| 26 | EGDSLRYYYAN | GKNNRHS | SSRDSSNFQVC | 2.93 | 3 of 3 |
| 27 | IGDSLRYEYAN | GSNNRPS | SSRDSSGFQVF | 3.00 | 3 of 3 |
| 28 | RGDSLRYYYAN | GKNNRPS | SSKDSSQFQVF | 2.21 | 3 of 3 |
| 29 | EGFSLRYYYPN | GKNNRPS | SSWDSSGFQVF | 3.18 | 3 of 3 |
| 30 | EGRELRYYYAN | GKNNRPS | SPRDSSGFQVF | 4.15 | 2 of 3 |
| 31 | ETWSLRYYYAN | GKNNRPS | SSRDSSGFQVD | 4.14 | 1 of 3 |
| 32 | EGMSLRYYYAN | GKNNNPS | SSRDSSGFQVF | 3.34 | 3 of 3 |
| 33 | EGDSLVEYYAN | GKNNRPS | SSRDSKGFQVF | 4.04 | 2 of 3 |
| 34 | EGDSLRYYYSN | GKNNRPS | SSRDSSAFQVF | 2.87 | 3 of 3 |
| 35 | EGDSLMYYYAN | GKNNRPS | SSRDSVGFQVK | 2.59 | 3 of 3 |
| 36 | ECDSLRYYYAN | KKDNRPS | SSRDSSGFQVF | 3.54 | 1 of 3 |
| 37 | EGQSRRYYYAN | GKNNRPS | CSRDSSGFQVF | 3.41 | 1 of 3 |
| 38 | EGDSLRYYYCN | GKNNRPS | SSRDWSTFQVF | nd | 0 of 3 |
| 39 | EGMFLTYYYAN | GKNNRPS | SSRDSSGFQVF | 4.45 | 3 of 3 |
| 40 | EGDSLRYYYAN | GKNNRVT | SSRDSSGAQVF | 2.25 | 3 of 3 |
| 41 | EGDSLRYYYAN | GKNNRPS | SSRDNSGFHYF | 2.93 | 1 of 3 |
| 42 | EGDSLRYYMAN | GKNNRPS | SSRESSGFQSF | 2.58 | 3 of 3 |
| 43 | ENDSLRYYYAN | LKNNRPS | CSRDSSGFQVF | 4.16 | 1 of 3 |
| 44 | EGDRLRYYYAY | GKNGRPS | SSRDSSGFQVF | nd | 0 of 3 |
| 45 | EGDSTRYYYAN | GKFNRES | SSRDSSGFQVF | 5.18 | 1 of 3 |
| 46 | TGDSLRYYYAN | GKNNNPS | SIRDSSGFQVF | 5.37 | 2 of 3 |
| 47 | EGDSLLYYYAN | GKNNRPS | HSRISSGFQVF | 2.47 | 3 of 3 |
| 48 | EGDQLGYYYAN | GKNNRPS | SSRDSSSFQVF | 2.91 | 1 of 3 |
| 49 | EWDSLRYYYFN | GKNNRPS | SSADSSGFQVF | nd | 0 of 3 |
| 50 | EGDKLRRYYAN | TKNNRPS | SSRDSSGFQVF | 3.53 | 1 of 3 |

The first 8 variants above that were never detected:

CDR-L1	CDR-L2	CDR-L3	mean log10 Kd (nM)	detected
EGDSLRYYYAN	QQNNRPS	SSRDSSTFQVF	nd	0 of 3
EGDSLRYYYMN	GKNMRPS	NSRDSSGFQVF	nd	0 of 3
EGDSLRYYYAN	GKNARPS	SSRDSEGFQMF	nd	0 of 3
EGDSYRYLYAN	GKWNRPS	SSRDSSGFQVF	nd	0 of 3
EGDSLRYYYAN	GTNNRPS	TSRDSSDFQVF	nd	0 of 3
EGDSLRYYYCN	GKNNRPS	SSRDWSTFQVF	nd	0 of 3
EGDRLRYYYAY	GKNGRPS	SSRDSSGFQVF	nd	0 of 3
EWDSLRYYYFN	GKNNRPS	SSADSSGFQVF	nd	0 of 3

Parent in this assay: reference entry 2.31, copy in this library 2.25. Background: pairings of library AAYL52 with three empty control strains gave a value in 28% of cases (median 3.91, 5th percentile 2.90). Values in that range, when seen in few replicates, are hard to tell from nonspecific mating.

From the AlphaSeq antibody data of Engelhart et al. 2022 (doi:10.1038/s41597-022-01779-4), copy in the FLAb collection.